## Antibody variant affinities, Ab-95 light chain, assay 2

Reference: Engelhart et al. 2022, doi:10.1038/s41597-022-01779-4. File: FLAb, binding data.

Target: peptide PDVDLGDISGINAS, taken from heptad repeat 2 (HR2) of SARS-CoV-2 spike.

The variants keep the heavy chain, the linker and the frameworks of Ab-95 (scFv order VH, a (GGGGS)3 linker, VL).
VH: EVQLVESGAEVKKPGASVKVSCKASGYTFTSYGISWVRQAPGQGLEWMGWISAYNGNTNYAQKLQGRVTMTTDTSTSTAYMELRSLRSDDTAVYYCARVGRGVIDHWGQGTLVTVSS
VL: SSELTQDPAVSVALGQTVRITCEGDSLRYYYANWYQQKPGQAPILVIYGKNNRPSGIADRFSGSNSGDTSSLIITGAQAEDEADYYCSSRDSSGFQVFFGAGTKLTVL

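The starting antibody came from a phage panning campaign against this peptide. Variants in AAYL52 differ from the parent at up to three CDR positions; double and triple changes were sampled at random. The assay is AlphaSeq: two haploid yeast populations carry antibody and antigen on their surface. After mating in shaken culture at 30 °C for 16 h, diploids were selected and their barcode pairs sequenced. Each replicate has its own calibration line, from reference interactions of the BCL2 family. Mating was done three times.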

Variants are written as CDR1, CDR2 and CDR3 of the light chain (limits as in the source). Parent: EGDSLRYYYAN, GKNNRPS, SSRDSSGFQVF. All variants listed here change Y29 of the VL, counted from its first residue. Scale: log10 of Kd in nM, estimated from mating counts; low values are strong binders. Replicates are averaged; those with no signal do not enter the mean. An entry "nd" has no value in the source: the pair was not observed among the diploids in any replicate. This suggests poor binding but is not conclusive.

The variant EGYSLRAYYAN / GHNNRPS / SSRDSSGFQVF gave 2.42 (3 of 3 replicates; controls 2 of 9). With EGVSLRIYYAN / GKWNRPS / SSRDSSGFQVF the result was 3.14 (1 of 3 replicates; controls 1 of 9). The variant EGDSLRDYYCN / GKNNRPS / SSRDSSGFQVF showed 2.06 (3 of 3 replicates; controls 3 of 9). The variant EGDSLRLYYAN / GKNNRPS / SSRDSSGFQVF showed 2.75 (3 of 3 replicates; controls 6 of 9). With EGDSLRAYYAN / GKNNRPS / SSRDFSGFQVF the result was nd (0 of 3 replicates; controls 4 of 9).

For EGDSLRNIYAN / GKNNRPS / SSRDSSCFQVF, the assay gave 1.83 (3 of 3 replicates; controls 1 of 9). With EGDSLRCYYAN / GKNNRPS / SSRDYSGFQNF the result was 5.09 (1 of 3 replicates; controls 2 of 9). With EGDSLRRYYAN / GKNNRPS / SSRDSSYFQVM the result was 3.71 (2 of 3 replicates; controls 3 of 9). The variant EGDSLRGYYAN / GKNNRPS / SERDSSGFQVF gave 1.18 (3 of 3 replicates; controls 7 of 9). The variant EGDSLRTYLAN / GKNNRPS / SGRDSSGFQVF gave 2.03 (3 of 3 replicates; controls 3 of 9).

The variant EGDSLRHYYAN / GKNNRPS / SSRMSAGFQVF gave 2.05 (3 of 3 replicates; controls 2 of 9). With YGDSLREYYAN / GKANRPS / SSRDSSGFQVF the result was 2.93 (3 of 3 replicates; controls 4 of 9). With EGDSLRWYYAN / WKNNRPS / SSRDSSGFQVF the result was 3.31 (3 of 3 replicates; controls 6 of 9). For EGDSLRDYYAN / GKNNRKS / LSRDSSGFQVF, the assay gave nd (0 of 3 replicates; controls 3 of 9). For EGDSLCNYYAN / GKNNRQS / SSRDSSGFQVF, the assay gave 3.57 (2 of 3 replicates; controls 1 of 9).

For EGDSLRAYYAN / GKNNFTS / SSRDSSGFQVF, the assay gave 3.95 (2 of 3 replicates; controls 3 of 9). With EGDSLRWYYWF / GKNNRPS / SSRDSSGFQVF the result was 3.61 (2 of 3 replicates; controls 4 of 9). The variant EGDSLRWYVAN / GKNNRPF / SSRDSSGFQVF showed nd (0 of 3 replicates; controls 2 of 9). The variant EGDSLRHYYAN / GKNNRPS / SSRDSSGFQVF showed 1.62 (3 of 3 replicates; controls 1 of 9). For EGDSLRVYYAN / GKNNRPS / RSRDSSGLQVF, the assay gave 3.99 (3 of 3 replicates; controls 2 of 9).

With EGDQLRTYYAN / GKNNRPS / SSRDSSGFQVF the result was 3.04 (3 of 3 replicates; controls 5 of 9). For EGDSLRRYYAN / GSNNRPS / SSRDSSGFQVF, the assay gave 1.83 (3 of 3 replicates; controls 5 of 9). For EGDSLITYYAN / GKNNRPS / TSRDSSGFQVF, the assay gave 4.16 (2 of 3 replicates; controls 3 of 9). For EGDSLRIYYAN / GKNNRPS / SSRDSSGLQVF, the assay gave 4.35 (3 of 3 replicates; controls 4 of 9). The variant EGDNLRTYYAN / GKNNRPS / SSRDSSGFQVL gave 3.97 (2 of 3 replicates; controls 2 of 9).

For EGDSLRWFYAN / GKPNRPS / SSRDSSGFQVF, the assay gave nd (0 of 3 replicates; controls 0 of 9). For EGDSLRDYYAG / GKNNRPS / SSRDSSGFQVF, the assay gave 3.91 (2 of 3 replicates; controls 5 of 9). The variant EGDSLRNYYAN / GKNNRPS / SSRDSSGFVVP showed 1.97 (3 of 3 replicates; controls 4 of 9). The variant SGDSLRWYYAN / GKNNTPS / SSRDSSGFQVF gave 2.75 (3 of 3 replicates; controls 0 of 9). With EGDSLVCYYAN / GKNNRPS / SSRDSSGFQVF the result was 4.28 (2 of 3 replicates; controls 4 of 9).

With EGDELRHYYAN / GKNNRPS / SSRDSSGGQVF the result was 3.58 (2 of 3 replicates; controls 4 of 9). The variant EGDSLRWYMAN / GKNNRPS / SSRDSSGQQVF gave 2.31 (3 of 3 replicates; controls 4 of 9). For EGDRYRSYYAN / GKNNRPS / SSRDSSGFQVF, the assay gave 3.46 (1 of 3 replicates; controls 2 of 9). The variant EGDSIRDYLAN / GKNNRPS / SSRDSSGFQVF showed 2.50 (3 of 3 replicates; controls 6 of 9). The variant EGDSLRHYYAN / GKNNRPS / SSRDSVGFCVF showed 2.70 (3 of 3 replicates; controls 3 of 9).

For EGDSCRSYYAN / GKNNRPS / SSRDSSGFQVF, the assay gave nd (0 of 3 replicates; controls 2 of 9). The variant EGDSLHQYYAN / WKNNRPS / SSRDSSGFQVF gave 3.47 (1 of 3 replicates; controls 1 of 9). For EGPSLRCYYAN / GKNNRPS / SSRDSSGTQVF, the assay gave 3.80 (1 of 3 replicates; controls 4 of 9). For EADSLRAYYAN / GKNNRPS / SSRDSSGFQVP, the assay gave nd (0 of 3 replicates; controls 0 of 9). With EGDSLRKYYAN / GKNNRPS / SSRDFSGFQVR the result was 3.46 (2 of 3 replicates; controls 3 of 9).

For EGDSLRHYYGN / GKNNRPS / SSRDSSGFQVF, the assay gave 3.26 (3 of 3 replicates; controls 0 of 9). The variant EGDSLRWNYKN / GKNNRPS / SSRDSSGFQVF gave nd (0 of 3 replicates; controls 0 of 9). The variant EGDSLRSYYAN / GKNLRPS / SSRDSSKFQVF gave 2.73 (3 of 3 replicates; controls 3 of 9). For LGDSLREYYAN / GKNNRPS / SSRDSSGFIVF, the assay gave nd (0 of 3 replicates; controls 0 of 9). The variant EGDSLRPYYAN / GHNNRPS / SSRDISGFQVF gave 3.29 (2 of 3 replicates; controls 1 of 9).

For EGDSLRDYYAN / LKNNRPS / SSRDSSGFQVF, the assay gave 4.47 (2 of 3 replicates; controls 2 of 9). With EGDSLRAYYAN / WKNNRPS / SSRDSSGVQVF the result was 4.83 (2 of 3 replicates; controls 6 of 9). For EGDSLRAYYAE / GKNNCPS / SSRDSSGFQVF, the assay gave 4.04 (1 of 3 replicates; controls 5 of 9). With EGDSLRSYYAN / PKNNRPS / SSRDSSGFGVF the result was 2.66 (3 of 3 replicates; controls 1 of 9). For EGDSLRNYYAN / GTNNRPK / SSRDSSGFQVF, the assay gave 1.98 (3 of 3 replicates; controls 7 of 9).

The first 4 entries again:

CDR-L1,CDR-L2,CDR-L3,"log10 Kd (nM), mean",detected,control signals
EGYSLRAYYAN,GHNNRPS,SSRDSSGFQVF,2.42,3/3,2/9
EGVSLRIYYAN,GKWNRPS,SSRDSSGFQVF,3.14,1/3,1/9
EGDSLRDYYCN,GKNNRPS,SSRDSSGFQVF,2.06,3/3,3/9
EGDSLRLYYAN,GKNNRPS,SSRDSSGFQVF,2.75,3/3,6/9

Background: pairings of library AAYL52 with three empty control strains gave a value in 28% of cases (median 3.91, 5th percentile 2.90). Values in that range, when seen in few replicates, are hard to tell from nonspecific mating. For each scFv, signals with the empty controls are counted beside the result. Parent in this assay: reference entry 2.31, copy in this library 2.25.